Data from patent US10376475B2, “Method of use” (Dermavant Sciences GmbH, priority 2014, dated 2019).

Test system: IL-17
Assay: IL-17 secretion by pre-existing (differentiated) Th17 polarized cells after TCR stimulus
Details: 24 hours treatment, 0.01-30 μM

**Q.** With `CC(C)c1c(O)cc(/C=C/c2ccccc2)cc1O` [Compound 1] as the molecule, how does the IL-17 secretion read?
**A.** reduced IL-17 secretion in a concentration dependent manner
